The list shows a part of the results, in another mix than the full data. Calls of active or inactive are those of the source.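 How the source made its calls: active means activation above the screen-wide mean plus 3 SD (cut at about 4.5% in these data, passing the limit was not always enough); inactive means the rest, inconclusive results apart.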
Each compound was assayed against Sphingosine 1-phosphate receptor 3 (Homo sapiens) (UniProt Q99500) (assay: human S1P3 receptor agonists, primary screen, cell-based, primary and confirmation, NFAT-BLA reporter (AID 373)). Conditions: S1P3 NFAT-BLA reporter cells, agonism, FRET ratio; at 4.5 µM; stronger effect = higher value; relative to 1 µM S1P, basal subtracted.

Sequences of proteins named here, by UniProt entry; tags and fusion partners are left off.
UniProt Q99500, whole entry: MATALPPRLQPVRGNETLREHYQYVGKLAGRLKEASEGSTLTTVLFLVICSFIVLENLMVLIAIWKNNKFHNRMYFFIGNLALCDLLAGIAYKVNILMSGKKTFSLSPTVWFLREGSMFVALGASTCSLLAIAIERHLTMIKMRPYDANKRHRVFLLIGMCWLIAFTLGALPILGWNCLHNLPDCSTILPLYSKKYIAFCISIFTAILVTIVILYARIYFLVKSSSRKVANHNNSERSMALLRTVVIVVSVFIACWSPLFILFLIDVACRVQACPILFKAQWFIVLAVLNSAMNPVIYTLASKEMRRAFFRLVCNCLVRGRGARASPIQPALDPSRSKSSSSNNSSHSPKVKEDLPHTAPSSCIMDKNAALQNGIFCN

Row | SMILES | activation
1 | COc1ccc(NC2CCN(CCc3ccccc3)CC2)c(OC)c1 | inactive: -1.1%
2 | O=C(OC1CN2CCC1CC2)C1c2ccccc2Oc2ccccc21 (configuration not stated) | inactive: -0.2%
3 | N#CC1(Nc2ccccc2)CCN(CCc2ccccc2)CC1 | inactive: -0.7%
4 | N/C(=N\O)c1c(N)no[n+]1[O-] | inactive: -0.3%
5 | CCC(CO)(C(=O)OC1CN2CCC1CC2)c1ccccc1 (configuration not stated) | inactive: 0.4%
6 | CCOc1ncccc1C(=O)NCC1(N2CCOCC2)CCCCC1 | inactive: 0.1%
7 | Fc1ccccc1NC1CCN(Cc2ccccc2)CC1 | inactive: -1.1%
